Experimental data taken from US20250352609A1, “Methods For Treating Alzheimer's Disease or Dementia Using A Calcilytic And A Calcimimetic” (The United States Government As Represented By The …, priority 2024, published 2025).

Columns and labels:
serum PTH (sPTH) = experiment: Serum PTH in aging-associated HPT mice; assay type: in vivo; conditions: aged male C57/B6 mice; aducanumab 40 mg/kg/week by twice weekly injections for 5 weeks; Etelcalcetide 0.3 mg/kg once daily
24 MOA male C57/B6 mice = experiment: Y-maze test in aged mice, aducanumab and/or Etelcalcetide; assay type: in vivo

Substance: aducanumab
- reduction of sPTH (serum PTH (sPTH)): 25%
- neuroprotection, neurobehavior assessed by Y-maze (24 MOA male C57/B6 mice): restore cognitive functions
